## Measured affinities in a library of Ab-14 light chain variants

Values reported by Li et al. 2023, doi:10.1038/s41467-023-39022-2 (FLAb copy).

Binding partner: SARS-CoV-2 spike HR2 peptide, sequence PDVDLGDISGINAS.

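The variants were designed computationally from a first round of random CDR variants and then made and measured. Several design methods are mixed in this list. In AlphaSeq, yeast of one mating type display the scFv and yeast of the other type display the target. Mating (16 h, 30 °C) was followed by selection of diploids and sequencing of their barcodes. Read counts were normalised to the haploid input and turned into Kd by a linear fit to BCL2-family pairs of known affinity, for each replicate. The assay was run in six technical replicates.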

Each scFv is VH, three GGGGS repeats, VL, as in the parent Ab-14, and differs from it in the CDRs of the light chain only.
VH: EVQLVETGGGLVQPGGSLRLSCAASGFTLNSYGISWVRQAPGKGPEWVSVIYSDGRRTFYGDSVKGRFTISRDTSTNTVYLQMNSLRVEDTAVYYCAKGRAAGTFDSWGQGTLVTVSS
VL: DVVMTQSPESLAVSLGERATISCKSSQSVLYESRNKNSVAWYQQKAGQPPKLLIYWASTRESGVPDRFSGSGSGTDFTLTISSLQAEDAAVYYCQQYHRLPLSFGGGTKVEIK

The parent's light chain CDRs are KSSQSVLYESRNKNSVA, WASTRES, QQYHRLPLS; each variant's own CDRs replace them letter for letter.
This list holds designs with at most six substitutions.
The Kd shown is the geometric mean over detected replicates; a lower Kd is a better binder.
Where no diploid with the target was found in any replicate, the entry reads "nd": below detection, most likely a poor binder, though not proof of it.
The parent sequence was in this pool as ten entries: three were never detected, three once, and four in most replicates, with averages from 2.2 nM to 240 nM.

Variant AQSQSVLYESRNKNSVA | DGSTRES | QQYHRLPLS gave 950 pM (6 of 6 replicates). For KSSQSVLYESRNKNSVA | WASTRES | QQYGRLPLS, the assay gave nd (0 of 6 replicates). Variant KLSQSFLYESRNKNSVA | NASTREM | QQYHRLPLS showed 1.0 nM (6 of 6 replicates). Variant KSSQSFLYETLNKNSVA | WASTRES | QQYHRLPLS showed 17 nM (6 of 6 replicates). Variant KSSSSVLYESLNQNSVA | WASTRES | QQYHRLPAS showed 120 nM (5 of 6 replicates).

With KSSQSGAYESRNKNSVA | DASTREL | QYYHRFPLS the result was 11 nM (6 of 6 replicates). Variant KSSHSKLYESRNKNSVA | WASTRES | QQYHRLPLS gave 1.5 µM (1 of 6 replicates). Variant KSSQSEHYESRNKNSVA | GASTRES | QQYHRLPLS showed 720 pM (6 of 6 replicates). For KLSQSVLYESRNKNSVA | EASQRMS | QQYHRLPLS, the assay gave 300 pM (6 of 6 replicates). For KSSQSVLMESRNKNSVA | DASTRES | QTYHRLPLS, the assay gave 1.3 nM (6 of 6 replicates).

For KISQSVLMENRNKNSVA | DASTRES | QQYHRLPLS, the assay gave 780 pM (6 of 6 replicates). With KISQSWLYESRNKNAVA | NASTRES | QQYHRLPLS the result was 440 pM (6 of 6 replicates). For KSSQSGLYESRNANSVA | WASTRES | QQYHRLPLM, the assay gave 61 nM (2 of 6 replicates). Variant KQSQHVLYESRNKNSVA | DASTRES | QQYHRLPLS showed 1.8 nM (6 of 6 replicates). Variant KLSQSELYESRNKNSVA | EASTRSS | QQYHRLPLS showed 660 pM (6 of 6 replicates).

Variant KLQQSELYESRNKNSVA | GASQRES | QQYHRLPLS gave 1.0 nM (6 of 6 replicates). Variant KLQQSVLYESRNKNSVA | NASTREM | QQYHRLPLS showed 210 pM (6 of 6 replicates). Variant KSSQSVLYESRNKGSVA | WASTRES | QQYHRLPLS gave nd (0 of 6 replicates). Variant KSFQSVLWELRNANSVA | DASTRES | QQYHRLPLS gave 4.1 nM (6 of 6 replicates). Variant KLVNSTLYESRQKNSVA | WASTRLS | QQYHRLPLS gave nd (0 of 6 replicates).

Variant KSSQSVLYESRNHNSVA | QASTRES | QQYHRLPLS gave 2.8 nM (6 of 6 replicates). For KSSMSVLYESRNLNSVA | WASTRES | QNPHRLPLS, the assay gave nd (0 of 6 replicates). For KSSQSVLYTSRNKNSVA | QASTRES | QQYHRLPLS, the assay gave 1.9 nM (6 of 6 replicates). Variant KSSQSVLTESRNKNSVA | YASTRRS | FQYHRLPLS gave nd (0 of 6 replicates). With KSSQSVFYESRNKNSVA | WASEREN | QQPHRLPLS the result was nd (0 of 6 replicates).

With KSSISYLPESRNKNSVA | EASTRES | QQYHRLPLS the result was 1.2 nM (6 of 6 replicates). Variant KSSISYLIESRNKNSVA | EASTREL | QQYHRLPLS showed 6.6 nM (6 of 6 replicates). Variant HSSPSVLYESRNGNSVA | NASTREM | QQYHRLPLS gave 5.2 nM (6 of 6 replicates). Variant KSSQSVLYEGRNKNSVA | AASNRES | QQYHRLPNS gave nd (0 of 6 replicates). Variant KVSQSMLYESRNKNSVA | NASQRLS | QQYHRLPLS showed 350 pM (6 of 6 replicates).

Variant KVSQSHLYESRNGNSVA | NASTREM | QQYHRLPLS gave 1.2 nM (6 of 6 replicates). Variant KGSQEKLYESRNKNSVA | DASTRES | QQYHRLPLS gave 550 pM (6 of 6 replicates). Variant KSSQSVLYESDNKNSVA | AASKRES | FQYHPLPLS gave 100 nM (1 of 6 replicates). Variant KSSWSELFESRNKNSVA | DASTRES | QQYHRLPLS showed 1.1 nM (6 of 6 replicates). Variant KSSNSELYESRNKNSVA | MASTRES | QQYHVLLLS showed nd (0 of 6 replicates).

3 of these entries, quoted again:

| CDR-L1 | CDR-L2 | CDR-L3 | Kd | detected |
|---|---|---|---|---|
| KSSQSGLYESRNANSVA | WASTRES | QQYHRLPLM | 61 nM | 2/6 |
| KLSQSELYESRNKNSVA | EASTRSS | QQYHRLPLS | 660 pM | 6/6 |
| KSSISYLPESRNKNSVA | EASTRES | QQYHRLPLS | 1.2 nM | 6/6 |

The authors' rule: three or more of the six replicates give a measured affinity, fewer mean a poor binder.
The range of this assay differs from that of the first round, and the authors advise against merging the two.
Nonspecific signal, from three strains lacking the peptide, appeared in 4% of pairings of all light chain designs, centred on 430 nM (5% of these signals below 38 nM); values are not corrected for it.